Target: OP-hAChE conjugates (Homo sapiens, UniProt P22303)
Experiment: Reactivation of OP-hAChE conjugates by 0.67 mM oxime (kobs)
Conditions: cyclosarin-hAChE conjugate

`C=CCCCn1cc[n+](C)c1C=NO.[I-]` was tested, and the “cyclosarin hAChE reactivation rate compared to 2PAM” value was “comparable to 2PAM”.

Source: patent publication US10172831B2, “Catalytic scavengers of organophosphates to potentiate butyrylcholinesterase (hBChE) as a catalytic bioscavenger and methods for making and using them” (dated 2019)
